Chains of the proteins cited; added tags and fusions are not shown. Lines headed by an entry give the natural chain unless they say otherwise; changes in a name come on top.
UniProt Q01726: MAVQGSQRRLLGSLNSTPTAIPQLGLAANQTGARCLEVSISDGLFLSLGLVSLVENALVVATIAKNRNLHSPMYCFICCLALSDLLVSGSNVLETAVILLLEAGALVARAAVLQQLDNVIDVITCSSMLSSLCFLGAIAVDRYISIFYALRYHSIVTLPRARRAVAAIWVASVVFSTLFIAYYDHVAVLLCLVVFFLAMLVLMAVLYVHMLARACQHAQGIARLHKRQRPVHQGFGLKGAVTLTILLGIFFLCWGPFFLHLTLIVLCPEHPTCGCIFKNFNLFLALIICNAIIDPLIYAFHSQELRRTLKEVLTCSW

In patent US20200223889A1, “Bicyclic Compounds Capable of Binding to Melanocortin 4 Receptor” (Novo Nordisk A/S, priority 2017, published 2020):

Target: T1, human MC1R (Homo sapiens, UniProt Q01726)
T1 construct: expressed in transfected cells
Assay: Functional cAMP assay (CisBio HTRF) in BHK cells expressing human MC1R
Format: cell-based
Protocol: In order to assess the potency of the compounds on human MC1R and human MC4R cAMP signalling was measured.
cAMP induction was measured by c-AMPdynamic2 assay, HTRF 62AM4PEC system from CisBio for the human MC1R and human MC4R according to the protocol provided by the vendor. BHK cells expressing the human MC1 or MC4 receptor were generated by stable transfection with expression vectors encoding the cDNA of either MC1R or MC4R.
In details; 25 μl compound—or standard solution were added in the respective wells. Compound was reconstituted in buffer (DMEM w/o phenol red, 10 mM
Hepes, lx Glutamine, 0.1% OV-albumin1, 1 mM IBMX) and serially diluted starting at 2 μM, 10-fold seven times. Dilutions were carried out in the same aforementioned buffer to the desired working concentration ranges (2× higher than the final concentration). 25 μl cell solution was then added and allowed to incubate for 30 min while lightly shaking, at 25° C. […]
Plates were centrifuged at 1500 rpm for 30 sec and incubated for 1 h, lightly shaking, at 25° C. in a hotel stacker. The plates were read on Mithras LB 940 provided by Berthold Technologies The data were analysed by non-linear regression analysis of binding curves, using the Windows™ program GraphPad™ Prism (GraphPad Software, USA). […]

C[C@@H]1NC(=O)[C@@H]2CSSC[C@H](NC(=O)[C@H](Cc3c[nH]c4ccccc34)NC(=O)[C@H](CCCNC(=N)N[N+](=O)[O-])NC(=O)[C@@H](Cc3ccccc3)NC(=O)[C@H](Cc3c[nH]cn3)NC1=O)C(=O)N[C@@H](C)C(=O)N[C@@H](Cc1c[nH]cn1)C(=O)N[C@H](Cc1ccccc1)C(=O)N[C@@H](CCCNC(=N)N[N+](=O)[O-])C(=O)N[C@@H](Cc1c[nH]c3ccccc13)C(=O)N2 [Chem. 21, c[c[Cys-Ala-His-D-Phe-Arg(NO2)-Trp- Cys]-Ala-His-D-Phe-Arg(NO2)-Trp]]
EC50: > 4 nM
